Laboratory results published in ChEMBL document CHEMBL1124682, “Quaternary salts of 2-[(hydroxyimino)methyl]imidazole. 3. Synthesis and evaluation of (alkenyloxy)-, (alkynyloxy)-, and (aralkyloxy)methyl quaternarized 2-[(hydroxyimino)methyl]-1-alkylimidazolium halides as reactivators and therapy for soman intoxication” (1989).

Key:
[1] = target: T1, Acetylcholinesterase (Homo sapiens, UniProt P22303); assay: Reversible inhibition of acetylcholinesterase (AChE) by 50 % in human erythrocytes
[2] = target: T1, Acetylcholinesterase; assay: Concentration of compound that reversibly inhibits acetylcholinesterase (AChE) by 50 %

SMILES | IC50 [1] | IC50 [2]
C#CCCCC[n+]1ccn(C(C)(C)C)c1/C=N/O | 76.6 µM | 
C#CCCCC[n+]1ccccc1/C=N/O |  | 61.5 µM
C#CCCOC[n+]1ccn(C)c1C | 27 µM | 
C#CCCCC[n+]1cn(C)c(/C=N/O)n1 |  | 62.5 µM
